# The list is not random: actives were taken first. Their share in the collection is about 4.2%.
# HDAC3 inhib: blocks human histone deacetylase 3 | O15379 | recombinant HDAC3, fluorogenic peptide/trypsin coupled, fluorescence | inhibition, % at 8.3 µM | 320,000 compounds, 0.15% hits | AID 2718; in the data active = inhibition above about 26%, passing the limit was not always enough
# UUG fidelity: modulators of start codon recognition fidelity in yeast; AID 602363; activity score, % at 18.7 µM; S. cerevisiae UUG-firefly luciferase reporter, luminescence/redox ratio; 0.13% of 350,000 active;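 active = replicate mean at a twofold rise or more, about +100% in these data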;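 note: firefly luciferase made from a UUG start codon reports start codon fidelity; reporter light over untreated wells divided by growth signal over untreated wells; some hits fall short of that in this replicate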
# ALR inh: inhibitors of human sulfhydryl oxidase ALR. P55789. purified ALR, DTT oxidation, H2O2 HRP-luminol luminescence. inhibition, % (concentration not given with the values). actives 3.8% (n = 290,000);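 active = mean and each replicate at 75% or more; inconclusive = only one of the two met; inactive = neither met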;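 also: stock transfer was 7.5 nL into about 7.5 µL; 0% = neutral wells and 100% = wells with inactivated enzyme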
# MC4R barr agon: human MC4R agonism via beta-arrestin | U2OS MC4R beta-arrestin complementation, luminescence; percent of melanotan II response, DMSO zero | activation, % at 8.9 µM | 360,000 compounds, 0.98% hits | AID 540308;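 active = activation above a per-plate cutoff, the mean activation of sample wells on that plate plus 3 SD, cut at about 8% in these data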
# MC4R antagonist: blocks human MC4R cAMP signaling; AID 540295; P32245; MC4R-expressing cells, MTII-stimulated cAMP, LANCE TR-FRET; 360,000 compounds, 0.48% hits; inhibition, % at 6.5 µM;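 active = inhibition above its plate's cutoff, the mean of tested wells on that plate plus 3 SD, cut at about 29% in these data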
#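 System – human MC4R-expressing U2OS cells · Also added – Melanotan II · Dosing – one concentration, 6.5 µM nominal · Timing – 30-min compound, 1-h challenge, 1-h detection, room temperature · Measured by – Eu-cAMP/anti-cAMP TR-FRET, emission 671 nm · Replicates – singlicate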
# NALP1 inh: NALP1 inhibition; S. cerevisiae NALP1/ASC/caspase-1 growth, X-gal OD620, 72 h; inhibition, % at 10 µM; 280,000 compounds, 0.61% hits; in the data active = inhibition mostly above about 24%, no sharp cut-off; inactive = mostly below about 32%
# Numbers stand for hits; - = inactive; . = no result given.
SMILES,HDAC3 inhib,UUG fidelity,ALR inh,MC4R barr agon,MC4R antagonist,NALP1 inh
COC(=O)c1ccc2c(=O)n(Cc3ccco3)c(SCC(=O)Nc3ccc(C)c(Cl)c3)nc2c1,-,-,100,-,-,-
C[C@@H]1CCCCO[C@@H](CN(C)S(=O)(=O)c2ccc(Cl)cc2)[C@H](C)CN([C@@H](C)CO)C(=O)c2cc(NC(=O)c3ccncc3)ccc2O1,.,-,.,.,.,.
C[C@H](O)C#Cc1ccc([C@@H]2[C@@H](CO)N3CCCCN(CC4CCOCC4)C[C@H]23)cc1,.,-,.,.,.,.
O=C(c1ccc(F)cc1)N1C[C@@H]2[C@H](c3ccccc31)[C@@H](CO)N2Cc1ccc2c(c1)OCO2,.,-,.,.,.,.
CCN(CC)c1ccc(C=Nc2ccc(N(C)C)cc2)c(O)c1,-,.,98,-,-,-
CCN(CC)c1ccc(/C=N/N2C(C)CCCC2C)c(O)c1 (stereo not given),-,-,98,-,-,-
CCN(CC)c1ccc(N=Cc2ccc(N(CC)CC)cc2O)cc1,-,.,-,-,-,-
CCN(CC)c1ccc(/C=N/N=C(N)N)c(O)c1,-,.,76,-,-,-
C[C@@H]1CCCCO[C@H](CN(C)Cc2ccc(Cl)c(Cl)c2)[C@@H](C)CN([C@H](C)CO)C(=O)c2cc(NC(=O)NC3CCCCC3)ccc2O1,.,-,.,.,.,.
CCNC(=O)C[C@H]1CC[C@@H]2[C@H](COC[C@H](O)CN2Cc2ccc(Cl)c(Cl)c2)O1,.,-,.,.,.,.
C[C@H](CO)N1C[C@H](C)[C@H](CN(C)C(=O)c2cnccn2)Oc2ncc(-c3cccc(F)c3)cc2C1=O,.,-,.,.,.,.
CCOc1cccc(-c2nnc3sc(C4CCCCC4)nn23)c1,-,-,-,-,-,-
COc1cccc(-c2nnc3sc(C4CCCCC4)nn23)c1,-,-,-,-,-,37
COc1cccc(CNC(=O)C[C@@H]2CC[C@H](NC(=O)C3CCC3)[C@@H](CO)O2)c1,.,-,.,.,.,.
CCCN1C(=O)c2ccccc2NC1c1ccc(O)c(OCC)c1 (stereo not given),-,.,86,-,-,-
CC(C)C#Cc1cnc2c(c1)C(=O)N([C@@H](C)CO)C[C@H](C)[C@H](CN(C)C(=O)Cc1ccncc1)O2,.,-,.,.,.,.
COc1ccc(NC(=O)c2cc3cccc(OC)c3oc2=Nc2ccc(C(=O)O)cc2)cc1OC,.,.,.,-,-,28
COc1ccccc1-c1ccc([C@@H]2[C@@H](CO)N3CCCCN(S(=O)(=O)c4cn(C)cn4)C[C@@H]23)cc1,.,-,.,.,.,.
Cc1cccc(NC(=S)NNC(=O)c2nn(C)cc2Cl)c1,-,-,89,-,-,-
Cc1ccc(NC(=S)NNC(=O)c2nn(C)cc2Cl)cc1,-,-,91,-,-,-
Cc1ccc(NC(=O)COC(=O)c2nn(C)cc2Cl)cc1,-,.,.,-,-,-
CC(C)C(=O)NN(C(=O)C(C)C)c1nc2ccccc2s1,-,.,95,-,-,-
Cc1nc2ccc(S(=O)(=O)NCC(=O)N3CCN(c4ccccn4)CC3)cc2s1,-,.,-,-,-,-
CCN1CCN(C(=O)C(NS(=O)(=O)c2ccc3nc(C)sc3c2)C(C)C)CC1 (stereo not given),-,-,92,-,-,-
Cc1nc2ccc(S(=O)(=O)NC(C(=O)NCc3ccc4c(c3)OCO4)C(C)C)cc2s1 (stereo not given),-,-,-,-,-,-
SMILES,HDAC3 inhib,UUG fidelity,ALR inh,MC4R barr agon,MC4R antagonist,NALP1 inh
Cc1nc2ccc(S(=O)(=O)NC(C(=O)NC3CCCC3)C(C)C)cc2s1 (stereo not given),-,-,96,-,-,-
Cc1ccc2c3c([nH]c2c1)C(=O)CC(C)(C)S3,-,-,98,-,-,-
Cc1ccc(C(=O)Nc2ccc(Oc3ccc(C(=O)O)c(C(=O)O)c3)cc2)cc1C,-,-,98,-,-,-
O=C(O)c1ccccc1C(=O)Nc1ccc(Oc2cccc3ccccc23)cc1,.,.,.,-,-,-
O=C(Nc1ccc(C(=O)c2ccc(C(=O)O)c(C(=O)O)c2)cc1)c1ccccc1,-,-,-,-,-,-
Cc1c(C)c(C)c(C(=O)c2ccc(NC(=O)c3ccccc3C(=O)O)cc2)c(C)c1C,-,-,96,-,-,-
O=C(O)c1ccccc1C(=O)NNc1ccc(Cl)cc1,-,-,99,-,-,-
O=C(O)c1ccccc1C(=O)Nc1ccc(Oc2ccc3ccccc3c2)cc1,-,-,99,-,-,-
NS(=O)(=O)c1ccc(NNC(=O)c2ccccc2C(=O)O)cc1,-,-,-,-,-,.

# Screening data as filed in PubChem BioAssay.
